Data on 1 compound can be found in patent US6344477B1, “Prostaglandin e agonists for treatment of dry eye” (Alcon Manufacturing, Ltd., priority 1998, dated 2002).

The chains behind the UniProt entries cited, without tags or fusion partners. Residues count along the entry.
UniProt A0A061ILF4, 1-488: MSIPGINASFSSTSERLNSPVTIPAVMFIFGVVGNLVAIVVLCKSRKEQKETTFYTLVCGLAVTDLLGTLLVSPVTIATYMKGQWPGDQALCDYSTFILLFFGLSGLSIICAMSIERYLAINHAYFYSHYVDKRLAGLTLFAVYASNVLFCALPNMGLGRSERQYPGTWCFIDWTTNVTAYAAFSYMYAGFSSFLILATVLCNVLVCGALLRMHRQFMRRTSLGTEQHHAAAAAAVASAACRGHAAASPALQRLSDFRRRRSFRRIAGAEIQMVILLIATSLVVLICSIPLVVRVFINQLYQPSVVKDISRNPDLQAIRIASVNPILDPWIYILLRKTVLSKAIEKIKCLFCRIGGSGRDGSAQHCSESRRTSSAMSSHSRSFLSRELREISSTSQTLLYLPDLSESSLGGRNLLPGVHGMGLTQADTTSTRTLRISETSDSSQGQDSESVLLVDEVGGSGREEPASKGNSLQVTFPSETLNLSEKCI
UniProt P43116, whole entry: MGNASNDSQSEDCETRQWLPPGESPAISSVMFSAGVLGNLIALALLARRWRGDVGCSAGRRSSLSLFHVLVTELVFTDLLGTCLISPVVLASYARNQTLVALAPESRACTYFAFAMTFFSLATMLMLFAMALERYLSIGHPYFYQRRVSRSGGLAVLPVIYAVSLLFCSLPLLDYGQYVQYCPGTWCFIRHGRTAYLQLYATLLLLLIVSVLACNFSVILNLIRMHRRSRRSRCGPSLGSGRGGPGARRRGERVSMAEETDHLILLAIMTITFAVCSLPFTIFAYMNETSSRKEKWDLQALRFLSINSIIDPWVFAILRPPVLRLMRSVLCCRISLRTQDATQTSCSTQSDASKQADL

The target of assay [1] is EP4 Receptors in Chinese Hamster Ovary Cells (Cricetulus griseus, UniProt A0A061ILF4). The assay is described as follows: cAMP production (radioimmunoassay) via EP4 receptors in Chinese hamster ovary cells. The following applies: read-out: Potency (EC50, nM) at EP4 Receptors in Chinese Hamster Ovary Cells, 15-60 min at 23° C.
The target of assay [2] is EP2 Receptors in Immortalized Human Non-pigmented Ciliary Epithelial Cells (Homo sapiens, UniProt P43116). The assay is described as follows: cAMP production (radioimmunoassay) via EP2 receptors in immortalized human non-pigmented ciliary epithelial cells.

As for `O=C(O)COC/C=C\C[C@@H]1[C@@H](/C=C/[C@@H](O)C2CCCCC2)[C@H](O)C[C@H]1Cl`, the EC50 was more than 10000 nM in assay [1] and 700 nM in assay [2] (read-out: Potency (EC50, nM) at EP2 Receptors in Immortalized Human Non-pigmented Ciliary Epithelial Cells, cAMP production, 15-60 min at 23° C.). In addition, the “Receptor selectivity EP2 versus EP4” value in assay [2] (comparison of EC50 at EP2 and EP4 receptors) is on record as “more EP2-selective”.
